We go through one molecule from paper PMC6452631 (Journal of medicinal chemistry, 2017).

As a reminder, the kinact is the maximal first-order rate at which the target is inactivated.

Assay [1] addresses T1, hTG2 (Homo sapiens, UniProt P21980).
T1 sequence (P21980 1-687): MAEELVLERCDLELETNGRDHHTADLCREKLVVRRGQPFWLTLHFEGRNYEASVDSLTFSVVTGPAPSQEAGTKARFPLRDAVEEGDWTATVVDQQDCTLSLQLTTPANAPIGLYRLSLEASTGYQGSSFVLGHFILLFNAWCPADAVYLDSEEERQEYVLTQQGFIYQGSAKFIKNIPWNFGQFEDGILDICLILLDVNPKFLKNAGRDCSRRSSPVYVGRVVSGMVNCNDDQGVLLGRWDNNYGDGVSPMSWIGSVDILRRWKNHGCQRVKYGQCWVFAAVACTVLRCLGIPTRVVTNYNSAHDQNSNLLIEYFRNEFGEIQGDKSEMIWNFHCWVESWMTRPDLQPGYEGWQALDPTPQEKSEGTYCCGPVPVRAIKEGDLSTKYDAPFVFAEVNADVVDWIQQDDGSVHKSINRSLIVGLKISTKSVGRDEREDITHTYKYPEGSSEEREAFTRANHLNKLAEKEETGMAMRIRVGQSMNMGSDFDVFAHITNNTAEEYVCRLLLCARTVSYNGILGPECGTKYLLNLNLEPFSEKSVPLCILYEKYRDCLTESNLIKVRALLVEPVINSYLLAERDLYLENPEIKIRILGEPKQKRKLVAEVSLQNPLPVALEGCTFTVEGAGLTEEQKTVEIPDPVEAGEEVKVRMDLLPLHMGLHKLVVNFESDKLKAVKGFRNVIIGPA
The note with it: pH 6.5.

In assay [2] the target is gplTG2. The note with it: cited from earlier work.

Take `C=CC(=O)NCCCC[C@H](NC(=O)OCc1ccccc1)C(=O)O` [Compound 1, (S)-6-Acrylamido-2-(((benzyloxy)carbonyl)amino)hexanoic Acid]: in assay [1], the maximal inactivation rate constant (kinact) is 0.0133 s⁻¹. Also, the “efficiency constants (kinact/KI)” value in assay [2] is given as 10^6 M^−1 min^−1.
